The record followed here is US20230357314A1, “METHODS FOR ULTRAFAST FORMATION OF DISULFIDE BONDS IN PEPTIDES AND PROTEINS” (TECHNION RESEARCH & DEVELOPMENT FOUNDATION LIMITED, priority 2020, published 2023).

The MIC is the lowest concentration that inhibits growth of the organism. A lower MIC goes with greater potency.

Molecules are shown by their SMILES. In brackets after ≈: the same amount, converted by molar mass.

This test relates to methicillin resistant Staphylococcus aureus (MRSA). The settings on record: MRSA growth after 17 h at 37° C., LB medium, absorbance at 600 nm, triplicate.

`CC[C@@H]1NC(=O)[C@H](CC(=O)O)NC(=O)[C@H](CC(=O)O)NC(=O)[C@H](CCC(=O)O)NC(=O)[C@H](CC(=O)O)NC(=O)[C@H](Cc2c[nH]c3ccccc23)NC(=O)[C@@H]2CCCN2C(=O)CNC(=O)[C@H](CC(N)=O)NC(=O)[C@@H](NC(=O)CNC(=O)[C@H](Cc2ccccc2)NC(=O)CN)CSSC[C@@H]2NC(=O)[C@H](Cc3ccc(O)cc3)NC(=O)CNC(=O)CNC(=O)[C@H](CCCCN)NC(=O)[C@H](Cc3ccc(O)cc3)NC(=O)CNC(=O)[C@H](CCCCN)NC(=O)[C@H]([C@@H](C)CC)NC(=O)[C@H](CO)NC(=O)[C@H](CCCCN)NC(=O)[C@@H]3CSSC[C@@H](C(=O)N[C@@H](Cc4ccc(O)cc4)C(N)=O)NC(=O)[C@H](CCCCN)NC(=O)[C@H](CSSC[C@H](NC(=O)[C@H](CCC(N)=O)NC1=O)C(=O)N[C@@H](Cc1c[nH]cn1)C(=O)N[C@@H](CC(N)=O)C(=O)N[C@@H](Cc1c[nH]cn1)C(=O)N3)NC(=O)[C@H](C(C)C)NC(=O)[C@H](Cc1ccccc1)NC(=O)CNC(=O)CNC(=O)[C@H](CCCCN)NC(=O)[C@H](C)NC2=O` [plectasinMet13Abu]: the MIC came out at 2.5 µM (≈ 10.9 µg/mL).

The compound `CCCC[C@@H]1NC(=O)[C@H](CC(=O)O)NC(=O)[C@H](CC(=O)O)NC(=O)[C@H](CCC(=O)O)NC(=O)[C@H](CC(=O)O)NC(=O)[C@H](Cc2c[nH]c3ccccc23)NC(=O)[C@@H]2CCCN2C(=O)CNC(=O)[C@H](CC(N)=O)NC(=O)[C@@H](NC(=O)CNC(=O)[C@H](Cc2ccccc2)NC(=O)CN)CSSC[C@@H]2NC(=O)[C@H](Cc3ccc(O)cc3)NC(=O)CNC(=O)CNC(=O)[C@H](CCCCN)NC(=O)[C@H](Cc3ccc(O)cc3)NC(=O)CNC(=O)[C@H](CCCCN)NC(=O)[C@H]([C@@H](C)CC)NC(=O)[C@H](CO)NC(=O)[C@H](CCCCN)NC(=O)[C@@H]3CSSC[C@@H](C(=O)N[C@@H](Cc4ccc(O)cc4)C(N)=O)NC(=O)[C@H](CCCCN)NC(=O)[C@H](CSSC[C@H](NC(=O)[C@H](CCC(N)=O)NC1=O)C(=O)N[C@@H](Cc1c[nH]cn1)C(=O)N[C@@H](CC(N)=O)C(=O)N[C@@H](Cc1c[nH]cn1)C(=O)N3)NC(=O)[C@H](C(C)C)NC(=O)[C@H](Cc1ccccc1)NC(=O)CNC(=O)CNC(=O)[C@H](CCCCN)NC(=O)[C@H](C)NC2=O` [plectasinMet13Nle] returned a minimum inhibitory concentration (MIC) of 10 µM (≈ 43.8 µg/mL).

For `CCC[C@@H]1NC(=O)[C@H](CC(=O)O)NC(=O)[C@H](CC(=O)O)NC(=O)[C@H](CCC(=O)O)NC(=O)[C@H](CC(=O)O)NC(=O)[C@H](Cc2c[nH]c3ccccc23)NC(=O)[C@@H]2CCCN2C(=O)CNC(=O)[C@H](CC(N)=O)NC(=O)[C@@H](NC(=O)CNC(=O)[C@H](Cc2ccccc2)NC(=O)CN)CSSC[C@@H]2NC(=O)[C@H](Cc3ccc(O)cc3)NC(=O)CNC(=O)CNC(=O)[C@H](CCCCN)NC(=O)[C@H](Cc3ccc(O)cc3)NC(=O)CNC(=O)[C@H](CCCCN)NC(=O)[C@H]([C@@H](C)CC)NC(=O)[C@H](CO)NC(=O)[C@H](CCCCN)NC(=O)[C@@H]3CSSC[C@@H](C(=O)N[C@@H](Cc4ccc(O)cc4)C(N)=O)NC(=O)[C@H](CCCCN)NC(=O)[C@H](CSSC[C@H](NC(=O)[C@H](CCC(N)=O)NC1=O)C(=O)N[C@@H](Cc1c[nH]cn1)C(=O)N[C@@H](CC(N)=O)C(=O)N[C@@H](Cc1c[nH]cn1)C(=O)N3)NC(=O)[C@H](C(C)C)NC(=O)[C@H](Cc1ccccc1)NC(=O)CNC(=O)CNC(=O)[C@H](CCCCN)NC(=O)[C@H](C)NC2=O` [plectasinMet13Nva], the MIC amounted to 2.5 µM (≈ 10.9 µg/mL).
